Earlier results in patent US20040241244A1, “Neuronal growth enhancement by prostaglandin compositions and methods” (NexMed (Holdings) Inc., priority 2003, published 2004).

The chains behind the UniProt entries cited, without tags or fusion partners. Where a name states a change or a piece, a line headed by the entry shows the natural chain unless it says otherwise.
UniProt P32240: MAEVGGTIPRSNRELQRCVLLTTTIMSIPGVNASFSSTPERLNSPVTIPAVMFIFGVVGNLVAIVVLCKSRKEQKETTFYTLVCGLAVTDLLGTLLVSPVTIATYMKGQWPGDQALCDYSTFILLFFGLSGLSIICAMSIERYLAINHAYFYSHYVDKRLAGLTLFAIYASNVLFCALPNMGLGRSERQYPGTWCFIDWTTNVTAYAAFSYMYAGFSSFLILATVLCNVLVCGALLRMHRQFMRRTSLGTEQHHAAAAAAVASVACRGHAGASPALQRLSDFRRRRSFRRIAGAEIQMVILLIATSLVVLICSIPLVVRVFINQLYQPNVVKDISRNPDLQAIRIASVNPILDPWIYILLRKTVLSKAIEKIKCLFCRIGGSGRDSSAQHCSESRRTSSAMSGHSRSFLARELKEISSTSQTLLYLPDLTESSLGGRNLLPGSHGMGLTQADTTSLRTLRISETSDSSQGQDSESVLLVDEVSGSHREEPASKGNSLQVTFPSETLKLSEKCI
UniProt Q62053: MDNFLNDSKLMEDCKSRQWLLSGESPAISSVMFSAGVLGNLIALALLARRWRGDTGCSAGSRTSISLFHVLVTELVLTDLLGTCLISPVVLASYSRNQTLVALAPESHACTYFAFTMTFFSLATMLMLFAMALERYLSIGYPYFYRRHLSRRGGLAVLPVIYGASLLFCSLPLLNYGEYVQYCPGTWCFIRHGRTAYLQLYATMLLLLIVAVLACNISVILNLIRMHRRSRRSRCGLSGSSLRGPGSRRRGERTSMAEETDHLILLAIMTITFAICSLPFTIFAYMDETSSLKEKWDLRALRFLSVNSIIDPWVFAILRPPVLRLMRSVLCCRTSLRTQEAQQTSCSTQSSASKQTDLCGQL

What was measured:
EP4 receptor = EP4 receptor (Mus musculus, UniProt P32240); conditions: read-out: affinity for the EP4 receptor; cited from earlier work
EP2 receptor = EP2 receptor (Mus musculus, UniProt Q62053); conditions: read-out: affinity for the EP2 receptor; cited from earlier work

Prostaglandin E1 [PGE1]
Kd (EP4 receptor): ~2 nM
Kd (EP2 receptor): ~10 nM
